Experimental data from ChEMBL document CHEMBL4371059 (J Med Chem, 2019).

Sequences of proteins named here, by UniProt entry; tags and fusion partners are left off.
UniProt P41145, whole entry: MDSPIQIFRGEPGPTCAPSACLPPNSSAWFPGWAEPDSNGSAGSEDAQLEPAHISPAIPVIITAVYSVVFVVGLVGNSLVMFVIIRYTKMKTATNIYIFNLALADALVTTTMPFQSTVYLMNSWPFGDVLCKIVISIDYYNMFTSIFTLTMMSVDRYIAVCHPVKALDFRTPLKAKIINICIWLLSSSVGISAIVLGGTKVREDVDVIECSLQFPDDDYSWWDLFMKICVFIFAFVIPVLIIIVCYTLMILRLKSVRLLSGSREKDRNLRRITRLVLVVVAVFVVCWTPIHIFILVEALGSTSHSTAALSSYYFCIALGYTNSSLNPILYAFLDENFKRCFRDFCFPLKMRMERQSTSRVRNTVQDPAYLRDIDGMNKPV
UniProt P33533, whole entry: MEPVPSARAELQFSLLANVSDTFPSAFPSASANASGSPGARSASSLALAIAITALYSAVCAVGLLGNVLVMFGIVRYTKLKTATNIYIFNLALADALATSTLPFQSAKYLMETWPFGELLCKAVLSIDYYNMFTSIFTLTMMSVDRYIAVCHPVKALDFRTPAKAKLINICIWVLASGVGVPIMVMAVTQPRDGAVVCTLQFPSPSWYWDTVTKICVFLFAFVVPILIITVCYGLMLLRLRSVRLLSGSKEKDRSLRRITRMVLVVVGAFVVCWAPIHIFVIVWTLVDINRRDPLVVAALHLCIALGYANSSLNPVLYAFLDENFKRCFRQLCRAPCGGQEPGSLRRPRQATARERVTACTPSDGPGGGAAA
UniProt Q60492, whole entry: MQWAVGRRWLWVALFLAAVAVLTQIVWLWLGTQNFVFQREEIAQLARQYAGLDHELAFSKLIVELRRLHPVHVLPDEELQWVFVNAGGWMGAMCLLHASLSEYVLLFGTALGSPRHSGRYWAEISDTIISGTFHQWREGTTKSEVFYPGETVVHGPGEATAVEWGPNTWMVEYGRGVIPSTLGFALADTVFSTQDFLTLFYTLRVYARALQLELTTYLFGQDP

Assays:
[1] = biological target: Kappa-type opioid receptor (Homo sapiens) (UniProt P41145); assay: Agonist activity at human KOR expressed in HEK293T cells assessed as inhibition of Galphai-mediated cAMP accumulation after 15 mins by microbeta counting assay relative to salvinorin A
[2] = biological target: Delta-type opioid receptor (Rattus norvegicus) (UniProt P33533); assay: Displacement of [3H]DPDPE from DOR in Sprague-Dawley rat brain membranes at 1 uM after 120 mins by scintillation counting method relative to control
[3] = biological target: Kappa-type opioid receptor (Homo sapiens) (UniProt P41145); assay: Agonist activity at Tango-KOR (unknown origin) expressed in HTLA cells harboring TEV-fused-beta-arrestin 2 assessed as increase in beta arrestin 2 recruitment after overnight incubation by BrightGlo reagent based assay relative to salvinorin A
[4] = biological target: Sigma non-opioid intracellular receptor 1 (Cavia porcellus) (UniProt Q60492); assay: Displacement of [3H]-(+)-pentazocine from sigma1 receptor in guinea pig brain membranes at 1 uM after 120 mins by scintillation counting method relative to control
[5] = species on record: Cavia porcellus; assay: Selectivity ratio of Ki for MOR in guinea pig brain membranes to Ki for KOR in guinea pig brain membranes

| Compound | Emax [1] [%] | inhibition [2] [%] | Emax [3] [%] | inhibition [4] [%] | Ratio Ki [5] |
| --- | --- | --- | --- | --- | --- |
| O=C(Cc1ccc(Cl)c(Cl)c1)N1CCN(Cc2ccc(F)cc2)[C@H]2CCC[C@H](N3CCCC3)[C@H]21 | 97 | > 50 | 105 | > 50 |  |
| O=C(Cc1ccc(Cl)c(Cl)c1)N1CCN(CCCCF)[C@H]2CCC[C@H](N3CCCC3)[C@H]21 |  | 17 |  | 0 |  |
| O=C(Cc1ccc(Cl)c(Cl)c1)N1CCN(CCF)[C@H]2CCC[C@H](N3CCCC3)[C@H]21 |  | 5 |  |  | > 4500 |
| O=C(Cc1ccc(Cl)c(Cl)c1)N1CCN(C(=O)COCCF)[C@H]2CCC[C@H](N3CCCC3)[C@H]21 | 97 | > 50 | 103 | 13 |  |
| COC(=O)N1CCN(C(=O)Cc2ccc(Cl)c(Cl)c2)[C@@H]2[C@@H](N3CCCC3)CCC[C@@H]21 |  | > 50 |  | 0 |  |
